Literature values as cited in US7109310B2.
Some compounds may have been tested in ways that are not shown here.

Tested on: fentanyl RIA
Conditions: Michiels et al (1977); cited from earlier work

c1ccc(CCN2CCC(Nc3ccccc3)CC2)cc1
cross-reaction: no cross-reaction was observed
